Data published in PMC5352116.

Chains of the proteins cited; added tags and fusions are not shown.
UniProt P50591, whole entry: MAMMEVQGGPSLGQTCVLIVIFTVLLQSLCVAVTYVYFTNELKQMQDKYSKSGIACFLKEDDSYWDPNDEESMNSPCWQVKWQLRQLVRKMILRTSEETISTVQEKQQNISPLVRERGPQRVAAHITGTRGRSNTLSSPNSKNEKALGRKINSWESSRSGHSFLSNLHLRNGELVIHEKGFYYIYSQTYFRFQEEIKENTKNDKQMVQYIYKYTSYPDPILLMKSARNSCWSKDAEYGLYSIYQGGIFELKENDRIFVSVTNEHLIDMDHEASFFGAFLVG

Molecular target: Death Receptor 5 (DR5) (human (endogenous in MCF-10A-Tr)) (UniProt O14763)

For “Tumor Necrosis factor Related Apoptosis Inducing Ligand (TRAIL) (from UniProt P50591 1-281)”, the apoptotic cells by annexin V-FITC/PI dual staining (FACS), MCF-10A-Tr cells treated with TRAIL (10 ng/mL) + QC (2.5 uM) was 42%.
